The text below walks through data of PubChem BioAssay AID504847 (National Center for Advancing Translational Sciences (NCATS), 2011).

Chains of the proteins cited; added tags and fusions are not shown. Lines headed by an entry give the natural chain unless they say otherwise; changes in a name come on top.
UniProt P11473: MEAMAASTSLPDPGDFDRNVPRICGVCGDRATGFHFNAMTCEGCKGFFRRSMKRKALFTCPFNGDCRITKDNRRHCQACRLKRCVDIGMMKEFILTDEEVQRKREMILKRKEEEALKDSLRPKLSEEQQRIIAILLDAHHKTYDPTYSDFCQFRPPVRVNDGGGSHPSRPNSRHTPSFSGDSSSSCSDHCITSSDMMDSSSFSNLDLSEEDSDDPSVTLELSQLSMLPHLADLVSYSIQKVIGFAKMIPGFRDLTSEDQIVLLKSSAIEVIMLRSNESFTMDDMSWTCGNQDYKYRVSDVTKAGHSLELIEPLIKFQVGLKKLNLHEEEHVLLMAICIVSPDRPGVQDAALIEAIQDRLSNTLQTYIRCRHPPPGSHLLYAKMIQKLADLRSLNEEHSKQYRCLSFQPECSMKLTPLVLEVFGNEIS

The entries are a selection whose mix differs from that of the whole data set. Inconclusive results are not listed. Calls of active or inactive are those of the source. Calls come from the whole dose curve; as a rule, active = well fitted inhibition curve with a large enough effect; inconclusive = small, poorly fitted or top-dose-only effect, or another doubt; inactive = no such curve, though single readings can be large or run the other way.
% is set by controls: 0 for no effect and ±100 for the full control effect.

This assay concerns the target Vitamin D3 receptor (Homo sapiens) (UniProt P11473). Kind of assay: Inhibitors of the vitamin D receptor (VDR): qHTS. The note with it: VDR-SRC2-3 peptide fluorescence polarization, 2 h; stronger effect = lower value.
Regarding `CCCCC1C(=O)N(c2ccccc2)N(c2ccccc2)C1=O`, the max response, negative = inhibition is inactive: -14.7%.
